According to PubChem BioAssay (NCI):
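Method: 48-hour compound exposure of cells in 96-well plates, five concentrations, linear interpolation of endpoints. The concentration for full growth arrest is given as TGI.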

Assays:
Test in all cases: growth of human tumour cells (NCI), 48 h
786-0 renal = tested on: 786-0 renal
A498 renal = tested on: A498 renal
A549 NSCLC = tested on: A549 NSCLC
ACHN renal = tested on: ACHN renal
CAKI-1 renal = tested on: CAKI-1 renal
CCRF-CEM leukemia = tested on: CCRF-CEM leukemia
COLO 205 colon = tested on: COLO 205 colon
DLD-1 colon = tested on: DLD-1 colon
DMS 114 small cell lung = tested on: DMS 114 small cell lung
DMS 273 small cell lung = tested on: DMS 273 small cell lung
EKVX NSCLC = tested on: EKVX NSCLC
HCC-2998 colon = tested on: HCC-2998 colon
HCT-116 colon = tested on: HCT-116 colon
HCT-15 colon = tested on: HCT-15 colon
HL-60(TB) leukemia = tested on: HL-60(TB) leukemia
HOP-18 NSCLC = tested on: HOP-18 NSCLC
HOP-62 NSCLC = tested on: HOP-62 NSCLC
HOP-92 NSCLC = tested on: HOP-92 NSCLC
HT29 colon = tested on: HT29 colon
IGROV1 ovarian = tested on: IGROV1 ovarian
K-562 leukemia = tested on: K-562 leukemia
KM12 colon = tested on: KM12 colon
KM20L2 colon = tested on: KM20L2 colon
LOX IMVI melanoma = tested on: LOX IMVI melanoma
LXFL 529 NSCLC = tested on: LXFL 529 NSCLC
M14 melanoma = tested on: M14 melanoma
M19-MEL melanoma = tested on: M19-MEL melanoma
MALME-3M melanoma = tested on: MALME-3M melanoma
MOLT-4 leukemia = tested on: MOLT-4 leukemia
NCI-H226 lung = tested on: NCI-H226 lung
NCI-H23 lung = tested on: NCI-H23 lung
NCI-H322M lung = tested on: NCI-H322M lung
NCI-H460 lung = tested on: NCI-H460 lung
NCI-H522 lung = tested on: NCI-H522 lung
OVCAR-3 ovarian = tested on: OVCAR-3 ovarian
OVCAR-4 ovarian = tested on: OVCAR-4 ovarian
OVCAR-5 ovarian = tested on: OVCAR-5 ovarian
OVCAR-8 ovarian = tested on: OVCAR-8 ovarian
RXF 393 renal = tested on: RXF 393 renal
RXF-631 renal = tested on: RXF-631 renal
SF-268 CNS = tested on: SF-268 CNS
SF-295 CNS = tested on: SF-295 CNS
SF-539 CNS = tested on: SF-539 CNS
SK-MEL-2 melanoma = tested on: SK-MEL-2 melanoma
SK-MEL-28 melanoma = tested on: SK-MEL-28 melanoma
SK-MEL-5 melanoma = tested on: SK-MEL-5 melanoma
SK-OV-3 ovarian = tested on: SK-OV-3 ovarian
SN12C renal = tested on: SN12C renal
SNB-19 CNS = tested on: SNB-19 CNS
SNB-75 CNS = tested on: SNB-75 CNS
SR leukemia = tested on: SR leukemia
SW-620 colon = tested on: SW-620 colon
TK-10 renal = tested on: TK-10 renal
U251 CNS = tested on: U251 CNS
UACC-257 melanoma = tested on: UACC-257 melanoma
UACC-62 melanoma = tested on: UACC-62 melanoma
UO-31 renal = tested on: UO-31 renal

Measured: TGI

CN(C)C(=O)Oc1ccc(/C=N/O)[n+](C)c1
> 100 µM: all assays above
